Literature values as cited in patent publication US12043625B2, “Pyridine derivatives with c-linked cyclic substituents as cGAS inhibitors” (BOEHRINGER INGELHEIM INTERNATIONAL GMBH, priority 2021, dated 2024).

System: cGAS
Settings: cited from earlier work

## O=C(N[C@H]1CCCC[C@H]1C(=O)O)c1cnn2c(O)cc(-c3ccccc3)nc12
  cellular activity as a cGAS inhibitor: no acceptable cellular activity
